This passage reports inhibition results from PubChem BioAssay AID1663 (Broad Institute, 2009).

The entries are a selection whose mix differs from that of the whole data set. The source made the active and inactive calls.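 How the source made its calls: active means mean replicate score, as percent of positive control, at or above 50; inconclusive means mean below 50 but at least one replicate at or above 50; inactive means mean and every replicate below 50.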

The nature of the assay: blockers of SFLLRN-triggered platelet ATP release – cell-based, MLPCN, human platelets, primary screen (AID 1663). As to conditions: human platelet-rich plasma, SFLLRN dense granule ATP release, luminescence; hits give high values;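 compounds screened at 7.5 µM in platelet-rich plasma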.
One may read the inhibition as the change of the read-out against control, counted positive when it falls. For the molecule `N#Cc1ccc(C(=O)NCC2(N3CCCCC3)CCCCC2)cc1`, the inhibition was inactive: -6.2%.
Regarding `CC(C)(C)OC(=O)N1CCC(N(C(=O)c2ccccc2)c2ccc(Cl)cc2)CC1`, the inhibition is inactive: -0.674%.
Consider `CN(C)C1(CNC(=O)c2cccc(C#N)c2)CCCCC1`, for which the inhibition is inactive: 1.62%.
In the case of `CCCN1CCC(Nc2cc(OC)cc(OC)c2)CC1`, the inhibition is inactive: 1.41%.
As to `c1ccc(CN2CCC(Nc3ccccc3)CC2)cc1`, the inhibition was inactive: 7.4%.
For the molecule `COc1ccc(C(=O)NCC2(N3CCOCC3)CCCCC2)cc1OC`, the inhibition was inactive: -2.2%.
Consider `CCOC(=O)N1CCC(Nc2ccc(C)cc2)CC1`, for which the inhibition is inactive: -5.48%.
For `N/C(=N\O)c1c(N)no[n+]1[O-]`, the inhibition was inactive: -7.29%.
Then `O=C(OC1CN2CCC1CC2)C1c2ccccc2C=Cc2ccccc21` (centres undefined), with inactive: 25.7%.
On to `CCc1cc(C(=O)NCC2(N3CCCCC3)CCCCC2)sc1C`, for which the inhibition was inactive: -7.84%.
Turning to `CN1CCC(Nc2ccc(F)c(Cl)c2)CC1`, the inhibition is inactive: -1.38%.
As to `CCOc1ncccc1C(=O)NCC1(N2CCOCC2)CCCCC1`, the inhibition was inactive: 7.91%.
Take `O=C(O)C1(Nc2ccccc2)CCN(Cc2ccccc2)CC1`: the inhibition was inactive: 5.71%.
Then `CC(C)(C)OC(=O)N1CCC(Nc2ccccc2)CC1`, with inactive: 4.09%; and `CCCOc1ccc(C(=O)NCC2(N(C)C)CCCCC2)cc1`, with inactive: -1.12%.
In the case of `COc1cccc(C(=O)N(c2cc(C)cc(C)c2)C2CCN(C(=O)OC(C)(C)C)CC2)c1`, the inhibition was inactive: 1.86%.
Then `COc1cc(OC)cc(C(=O)NCC2(N3CCOCC3)CCCCC2)c1`, with inactive: -12.6%; and `CCC(CO)(C(=O)OC1CN2CCC1CC2)c1ccccc1` (centres undefined), with inactive: 0.708%; and `CN1CCC(Nc2ccc(Cl)cc2)CC1`, with inactive: -3.21%.
The figure for `CCCOc1ccc(C)cc1CN(CCCl)CCCl` is inactive: 15.5%.
Take `COc1cc(OC)cc(C(=O)NCC2(N3CCCCC3)CCCCC2)c1`: the inhibition was inactive: -10.5%.
`Fc1ccccc1NC1CCN(Cc2ccccc2)CC1`: the inhibition was inactive: 9.24%.
`Cc1ccc(C(=O)NCC2(N3CCCCC3)CCCCC2)o1`: the inhibition was inactive: -4.23%.
The figure for `CCN1CCC(Nc2cccc(F)c2)CC1` is inactive: 2.54%; for `CN(C)c1ccc(C(=O)NCC2(N3CCCCC3)CCCCC2)cc1` it is inactive: 0.379%; for `CCOc1ccc(C)cc1CN(CCCl)CCCl` it is inactive: 5.43%.
The figure for `CCOC(=O)N1CCC(Nc2ccc(F)cc2)CC1` is inactive: -2.56%; for `COc1ccc(NC2CCN(CCc3ccccc3)CC2)c(OC)c1` it is inactive: 4.47%; for `O=C(NCC1(N2CCCCC2)CCCCC1)c1ccc(F)cc1` it is inactive: -1.79%.
As for `Cc1ccc(OCC(C)C)c(CN(CCCl)CCCl)c1`, the inhibition is inactive: 8.64%.
`COc1cc(C(=O)NCC2(N(C)C)CCCCC2)ccc1OC(F)F`: the inhibition was inactive: 0.649%.
Consider `CCOC(=O)N1CCC(Nc2cccc(C)c2)CC1`, for which the inhibition is inactive: 1.73%.
With `COc1ccc(C(=O)NCC2(N3CCCCC3)CCCCC2)c(OC)c1OC`, the inhibition is inactive: 2.25%.
`CC(C)(C)OC(=O)N1CCC(N(C(=O)c2ccccc2)c2ccc(F)cc2)CC1`: the inhibition is inactive: 1.82%.
Regarding `COc1ccc(C(=O)NCC2(N3CCCCC3)CCCCC2)cc1`, the inhibition is inactive: 1.62%.
In the case of `O=C(NCC1(N2CCCCC2)CCCCC1)c1cccs1`, the inhibition was inactive: 0.951%.
With `O=C(NCC1(N2CCCCC2)CCCCC1)c1ccc(=O)[nH]c1`, the inhibition is inactive: 9.03%.
Consider `CSc1ccccc1C(=O)NCC1(N2CCCCC2)CCCCC1`, for which the inhibition was inactive: 5.92%.
With `Cc1cc(C)cc(N(C(=O)c2ccccc2)C2CCN(C(=O)OC(C)(C)C)CC2)c1`, the inhibition was inactive: -12.2%.
The figure for `O=C(NCC1(N2CCCCC2)CCCCC1)c1ccc(Cl)nc1` is inactive: -7.75%; for `O=C(NCC1(N2CCOCC2)CCCCC1)c1cc2ccccc2o1` it is inactive: 7.05%.
`O=C(OC1CN2CCC1CC2)C1c2ccccc2Oc2ccccc21` (centres undefined): the inhibition was inactive: -0.777%.
Take `N#CC1(Nc2ccccc2)CCN(Cc2ccccc2)CC1`: the inhibition was inactive: -33%.
The figure for `CCOC(=O)N1CCC(Nc2ccc(OC)cc2)CC1` is inactive: 1.12%; for `CC(C)c1ccc(NC2CCN(C(=O)OC(C)(C)C)CC2)cc1` it is inactive: -4.78%.
As to `CN(C)c1cccc(C(=O)NCC2(N3CCCCC3)CCCCC2)c1`, the inhibition is inactive: -3.3%.
The figure for `COc1ccc(CN(CCCl)CCCl)cc1Cl` is inactive: -5.17%; for `COc1cc(OC)c(C(=O)NCC2(N(C)C)CCCCC2)cc1OC` it is inactive: -0.46%; for `CN1CCC(Nc2cccc(F)c2)CC1` it is inactive: -6.34%.
Regarding `CCCOc1ccc(C(=O)NCC2(N(C)C)CCCCC2)cc1OC`, the inhibition was inactive: -6.77%.
In the case of `O=C(NCC1(N2CCCCC2)CCCCC1)c1ccc(OC(F)F)cc1`, the inhibition was inactive: -13.6%.
Regarding `N#CC1(Nc2ccccc2)CCN(CCc2ccccc2)CC1`, the inhibition was inactive: 2.89%.
Then `CCN1CCC(Nc2ccc(Cl)cc2)CC1`, with inactive: 1.54%; and `O=C(NCC1(N2CCCCC2)CCCCC1)c1cccc([N+](=O)[O-])c1`, with inactive: -6.54%; and `O=C(NCC1(N2CCCCC2)CCCCC1)c1cccc(C(F)(F)F)c1`, with inactive: 21.7%.
In the case of `O=C(NCC1(N2CCOCC2)CCCCC1)c1cc(=O)[nH]c2ccccc12`, the inhibition was inactive: 2.97%.
For `COc1cc(C(=O)NCC2(N3CCCCC3)CCCCC2)ccc1OC(F)F`, the inhibition was inactive: -0.194%.
Take `COc1ccc(NC2CCN(C(=O)OC(C)(C)C)CC2)cc1`: the inhibition is inactive: 1.63%.
Then `CN1CCN(CCOC(=O)C(O)(c2ccccc2)c2ccccc2)CC1`, with inactive: -12.8%.
